Values of other authors as cited in patent US7517900B2, “Pyrazole derivatives as cannabinoid receptor modulators” (Bristol-Myers Squibb Company, priority 2003, dated 2009).

Conditions: chronic administration for two weeks

Cc1c(C(=O)NN2CCCCC2)nn(-c2ccc(Cl)cc2Cl)c1-c1ccc(I)cc1 [AM-251]
adipose tissue mass: decreased adipose tissue mass
